From ChEMBL document CHEMBL5113506, “Discovery of novel human lactate dehydrogenase inhibitors: Structure-based virtual screening studies and biological assessment” (Eur J Med Chem, 2022)

Target: L-lactate dehydrogenase A chain (Homo sapiens, UniProt P00338)
Assay: Inhibition of LDHA in human Med1 cells using pyruvate as substrate incubated 10 mins by spectrophotometric analysis
Format: cell-based, Medulloblastoma cell

- IC50: 16.5 µM
SMILES: NC(=O)C(=O)O [SODIUM OXAMATE]
